SMILES strings stand for the structures. The list shows a part of the results, in another mix than the full data. Activity calls are given as the source filed them. Cut-off read from the data, not from the text of the source: active = normalized activity above about 1.9%; inactive = the rest.

Amino acid sequences for entries named in this document (tags omitted).
UniProt Q969H0, whole entry, looked up: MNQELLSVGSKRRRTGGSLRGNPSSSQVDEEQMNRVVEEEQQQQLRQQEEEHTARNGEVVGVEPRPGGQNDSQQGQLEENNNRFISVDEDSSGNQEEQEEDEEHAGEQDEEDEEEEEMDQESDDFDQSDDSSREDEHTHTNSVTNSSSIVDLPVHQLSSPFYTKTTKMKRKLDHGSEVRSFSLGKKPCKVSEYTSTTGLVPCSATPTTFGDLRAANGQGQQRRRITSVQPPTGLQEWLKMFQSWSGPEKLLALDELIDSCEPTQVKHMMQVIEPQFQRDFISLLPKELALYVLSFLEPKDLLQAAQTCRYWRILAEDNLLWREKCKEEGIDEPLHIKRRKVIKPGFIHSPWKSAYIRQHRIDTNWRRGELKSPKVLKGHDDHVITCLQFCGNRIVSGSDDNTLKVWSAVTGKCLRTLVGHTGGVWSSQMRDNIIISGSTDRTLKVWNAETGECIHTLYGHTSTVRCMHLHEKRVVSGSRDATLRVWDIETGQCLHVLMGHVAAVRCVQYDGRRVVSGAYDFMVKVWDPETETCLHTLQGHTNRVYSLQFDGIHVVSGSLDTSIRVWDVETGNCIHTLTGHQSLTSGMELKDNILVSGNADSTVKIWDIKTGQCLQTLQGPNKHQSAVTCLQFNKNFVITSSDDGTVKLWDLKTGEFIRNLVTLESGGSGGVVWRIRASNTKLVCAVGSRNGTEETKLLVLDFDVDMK

The source of these data is PubChem BioAssay AID1259310 (The Scripps Research Institute Molecular Screening Center, 2017).

For the test, the target named is F-box/WD repeat-containing protein 7 (Homo sapiens) (UniProt Q969H0). Description: FBW7 E3 ligase activators, primary screen, biochemical, AlphaScreen, human (AID 1259310).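 Note: purified mutant Fbw7 with reduced substrate affinity.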 As to conditions: AlphaScreen FBW7–phospho-cyclin E peptide binding, activator screen; at 26.1 µM; hits give high values.
Consider `Cc1cc(SC(NC=O)C(Cl)(Cl)Cl)ncn1` (stereo not drawn), for which the normalized activity (activation) was inactive: 0.33%.
Regarding `CCN1C(=O)N(c2ccccc2)P(=S)(OC)c2cc3c(cc21)OCCO3` (stereo not drawn), the normalized activity (activation) was inactive: 0.01%.
On to `CC(C)COP(=O)(Nc1ccc(Br)cc1)OCC(C)C`, for which the normalized activity (activation) is inactive: -0.11%.
With `CCCCOP(=S)(CC(=O)N(CC)CC)OCCCC`, the normalized activity (activation) was inactive: -0.12%.
As to `CC(C)OP(=O)(OC(C)C)C(=O)c1ccccc1Cl`, the normalized activity (activation) was inactive: -0.11%.
With `O=[N+]([O-])c1cccc(Nc2ccc([N+](=O)[O-])cc2[N+](=O)[O-])c1`, the normalized activity (activation) is inactive: 0.35%.
For `CC(C)(C)C(=O)CSc1nc2ccccc2[nH]1`, the normalized activity (activation) is inactive: -0.03%.
As for `O=[N+]([O-])c1ccc(-c2nnc(SCCCl)o2)cc1`, the normalized activity (activation) is inactive: 0.24%.
Turning to `CC(C)OP(=O)(Nc1nc2ccccc2[nH]1)OC(C)C`, the normalized activity (activation) was inactive: -0.16%.
For `O=C(Cc1ccc(F)cc1)N(Cc1ccco1)C1CCN(CCc2cccs2)CC1` the value was inactive: -0.2%; for `COP1(=S)N=C2c3ccccc3CN2c2cc(N(C)C)ccc21` (stereo not drawn), inactive: 0.22%.
On to `CCN(CCCl)c1ccc(C=C(C#N)C#N)c(C)c1`, for which the normalized activity (activation) is inactive: -0.17%.
As to `CC(C)NC(=O)NP(=O)(Oc1ccccc1)Oc1ccccc1`, the normalized activity (activation) was inactive: -0.04%.
As to `CN(C)CCCN(C)Cc1cc2ccccc2o1`, the normalized activity (activation) is inactive: -0.1%.
With `COC(=O)N(c1ccc(OC)cc1)P1(=S)OCC(C)O1` (stereo not drawn) the figure was inactive: -0.23%; with `O=[N+]([O-])c1cc([N+](=O)[O-])c(Nc2ccccc2)c([N+](=O)[O-])n1`, inactive: 0.1%; with `O=[N+]([O-])c1ccc2no[n+]([O-])c2c1`, inactive: 0.01%.
Regarding `O=C(NNC(=O)c1ccncc1)NP1Oc2ccccc2O1`, the normalized activity (activation) is inactive: -0.3%.
For `Nc1nonc1OCCOc1nonc1N` the value was inactive: 0.27%; for `CCCOc1ccc(S(=O)(=O)N(CCCl)CCCl)cc1`, inactive: 0.55%.
As for `CCOP(=S)(OCC)SCC(=O)NC(C)C(=O)O` (stereo not drawn), the normalized activity (activation) was inactive: -0.28%.
With `O=P1(Nc2nc(-c3ccccc3)cs2)C=C(c2ccccc2)OC(c2ccccc2)=C1`, the normalized activity (activation) is inactive: -0.02%.
Consider `O=C(c1cccnc1)N(Cc1ccco1)C1CCN(CCc2ccc(Cl)cc2)CC1`, for which the normalized activity (activation) is inactive: 0.03%.
Consider `O=C(Cn1cnc([N+](=O)[O-])n1)NCCO[N+](=O)[O-]`, for which the normalized activity (activation) is inactive: 0.03%.
With `CC(C)OP(=O)(OC(C)C)C(=O)c1ccc(F)cc1`, the normalized activity (activation) was inactive: 0.22%.
In the case of `O=[N+]([O-])c1cc([N+](=O)[O-])c2[nH]ncc2c1`, the normalized activity (activation) was inactive: 0.08%.
With `CCOP(=O)(OCC)C(=O)c1ccc(OC)cc1`, the normalized activity (activation) is inactive: -0.06%.
For `CC(C)OP(=O)(NC(C)(C)C)C(Cl)Cl` (stereo not drawn) the value was inactive: -0.18%; for `O=[N+]([O-])c1ccc(/C=C/C=N/Nc2ccc([N+](=O)[O-])cc2[N+](=O)[O-])cc1`, inactive: 0.05%; for `CCOP(=O)(OCC)SCC(=O)NCC(=O)O`, inactive: 0.08%.
With `CCOP(=S)(OCC)C1(C#N)CCCC1` the figure was inactive: 0.21%; with `O=C(Oc1ccc([N+](=O)[O-])cc1[N+](=O)[O-])c1ccc(Cl)cc1[N+](=O)[O-]`, inactive: -0.08%; with `OP1(c2ccccc2)=NC(c2ccccc2)=NC(C(Cl)(Cl)Cl)=N1` (stereo not drawn), inactive: 0.04%.
Turning to `O=C(c1cccnc1)N(Cc1ccco1)C1CCN(CCc2cccs2)CC1`, the normalized activity (activation) was inactive: 0.11%.
For `O=[N+]([O-])c1ccc(N/N=C/c2cc3c(cc2[N+](=O)[O-])OCO3)c([N+](=O)[O-])c1` the value was inactive: -0.18%.
Consider `CC(=O)N(Cc1cccnc1)C1CCN(CCc2ccccn2)CC1`, for which the normalized activity (activation) was inactive: -0.07%.
With `ICC1CN=C(Nc2ncccn2)S1` (stereo not drawn), the normalized activity (activation) was inactive: -0.32%.
On to `CCCOP(=O)(OCCC)O/C(C)=C/SC#N`, for which the normalized activity (activation) was inactive: 0.75%.
As to `c1ccc2nc(-c3nc4ccccc4[nH]3)ccc2c1`, the normalized activity (activation) was inactive: 0.31%.
In the case of `CC(C)OP(=O)(OC(C)C)C(=O)c1ccccc1`, the normalized activity (activation) is inactive: 0.16%.
`BrCC1CN=C(Nc2ccccc2Br)S1` (stereo not drawn): the normalized activity (activation) was inactive: 0.38%.
For the compound `O=C(COC(=O)C(O)(c1ccccc1)c1ccccc1)NCC(F)(F)F`, the normalized activity (activation) is inactive: 0.01%.
Consider `O=[N+]([O-])c1ccc(C(O)C(CO)Nc2ccc([N+](=O)[O-])cc2[N+](=O)[O-])cc1` (stereo not drawn), for which the normalized activity (activation) is inactive: 0.01%.
On to `Cc1cccc(NP(=O)(c2ccccc2)c2ccccc2)n1`, for which the normalized activity (activation) was inactive: -0.05%.
Take `COP(=O)(OC)C(NC(=O)c1ccc(C)cc1)=C(Cl)Cl`: the normalized activity (activation) is inactive: 0.2%.
On to `COc1ccc(CCN2CCC(N(Cc3cccnc3)C(C)=O)CC2)cc1`, for which the normalized activity (activation) is inactive: -0.05%.
Turning to `CN(C)P1(=O)Nc2ccccc2S1` (stereo not drawn), the normalized activity (activation) was inactive: -0.06%.
With `Cc1cc(=O)[nH]c(N[N+](=O)[O-])n1` the figure was inactive: -0.22%.
For `CCOP(=S)(OCC)SCC(=O)NC(C)C(=O)NC` (stereo not drawn) the value was inactive: -0.21%.
For `COc1ccc(C)cc1NC(=O)N(Cc1ccco1)C1CCN(CCc2ccccn2)CC1` the value was inactive: -0.01%; for `O=C(Nc1nnc(-c2cccc([N+](=O)[O-])c2)s1)c1ccc([N+](=O)[O-])cc1[N+](=O)[O-]`, inactive: -0.08%.
Consider `CC1CN(c2ccc([N+](=O)[O-])cc2[N+](=O)[O-])CCN1c1ccc([N+](=O)[O-])cc1[N+](=O)[O-]` (stereo not drawn), for which the normalized activity (activation) is inactive: -0.08%.
With `CC(C)COP(=O)(Nc1cccc(F)c1)OCC(C)C` the figure was inactive: 0.02%.
